These results are taken from US11497740B2, “Use of Jumonji C demethylase inhibitors for the treatment and prevention of chemotherapy resistance and radioresistance in cancer” (THE BOARD OF REGENTS OF THE UNIVERSITY OF TEXAS SYSTEM, priority 2016, dated 2022).

The structures appear in SMILES notation.

Assay [1] has as its system H1355 Parental xenografts. The assay is described as follows: Subcutaneous xenograft drug response, H1355 Parental. The format is in vivo, mice. As to conditions: GSK-J4 100 mg/kg i.p. 5x per week; JIB-04 50 mg/kg oral gavage 3x per week; 4 weeks. On the procedure: (§1) Animals were housed under standard, sterile conditions at UTSW animal facility. All experiments were carried out under approved IACUC protocols and followed UTSW animal care procedures. For tumor growth rate studies and docetaxel+cisplatin drug response comparisons, 6-8 week old female NOD/SCID mice were used. For all subsequent in vivo drug response studies, 6 week old female athymic nude mice were used (Charles River Labs, Jackson Labs). Experimental details are provided in supplemental information.
(§2) Parental and resistant NSCLC cell lines (1×10^6 cells in PBS or RPMI for H1299; 5×10^6 cells in PBS/matrigel for H1355 and HCC4017) were injected subcutaneously into the right flank of mice. Tumor growth was monitored by caliper measurements and tumor volume was calculated by 0.5×length×width^2). Treatment was started when tumors reached ˜150-200 mm3. Drug/Vehicle therapy was given to tumor volume matched pairs. Docetaxel (3 mg/kg) and cisplatin (3 mg/kg) were given i.p. once a week for 3 weeks. […]

The subject of assay [2] is H1355 T16 xenografts. Conditions: GSK-J4 100 mg/kg i.p. 5x per week; JIB-04 50 mg/kg oral gavage 3x per week; 4 weeks. How it is done:
as §1, §2

The test system of assay [3] is H1299 T18 cells. The assay is described as follows: Microarray gene expression after 24 h treatment, H1299 T18 cells. The format is cell-based, human. On the procedure:
Gene expression profiling was performed using Illumina HumanWG-6 V3 BeadArrays (for NSCLC patient tumors) or Illumina HumanHT-12 V4 BeadArrays (for cell lines and xenografts). […] Data were pre-processed using the R package mbcb for background correction (Ding et al., 2008), then log-transformed and quantile-normalized with the R package preprocessCore or using in-house MATRIX software ([…]). Microarray data can be found under GEO accession GSE77209. Log ratios, unpaired t-test p values and color-coded heat maps were obtained using MATRIX. For comparisons involving progressively resistant cell line series, analyses were performed using R package by fitting linear regression model on gene expression data against the log transformed IC50 values as measures of drug response. We fitted beta-uniform mixture model to a set of p-values using the R package ClassComparison. […] For xenograft data, differential gene expression analysis was performed by student's t-test. Using 35 gene signature, unsupervised hierarchical clustering (Eisen et al., 1998) was performed to separate neoadjuvant chemotherapy treated patients into two groups. Clustering was based on Euclidean distance matrix and maximum linkage method. Kaplan-Meier survival analysis and multivariate Cox regression were performed by R survival package and replotted using Graphpad Prism 6.00 (GraphPad Software, La Jolla, Calif. USA). […]

Assay [4] concerns H1355 T16. Put plainly: MTS cell viability assay, H1355 T16 resistant variant vs H1355 Parental. The format is cell-based, human. As to conditions: SR = [IC50 of Parental]/[IC50 of Resistant]. How it is done: (§3) NSCLC lines were treated with paclitaxel+carboplatin combination, given in a ˜2:3 wt/wt ratio, to mirror the clinical dosage values of ˜225 mg/m2 and ˜330 mg/m2, paclitaxel and carboplatin respectively. Note that considering the molecular weights of the two drugs, this translates to approximately a 1 to 3.4 molar ratio. Drugs were given in cycles, following a drug on/drug off treatment scheme. Each cycle consisted of 4-5 days of drug treatment and drug-free culturing for about 1-2 weeks or more to allow the surviving cells to repopulate the plate. […] Untreated parental cells were simultaneously maintained at all times for comparison. Cell viability was assessed in 96-well plates using standard MTS assays (Promega). Treatment duration in MTS assays was 4 days. Drugs were tested in two- or four-fold serial dilutions, totaling 8 different drug concentrations, with 8 replicates per concentration. Response was validated in multiple replicate plates (n≥3).
(§4) Cell viability was assessed by standard MTS assays using Promega's CellTiter reagents. Eight drug concentrations given as two- or four-fold dilutions were tested for each chemotherapeutic agent. In addition, each experiment contained eight replicates per concentration and the entire assay was performed in multiple replicates (n≥3).

The subject of assay [5] is H1299 T18. The assay is described as follows: MTS cell viability assay, H1299 T18 resistant variant vs H1299 Parental. As to conditions: SR = [IC50 of Parental]/[IC50 of Resistant]. The format is cell-based, human. How it is done:
as §3, §4
For orientation: Formazan colour is commonly taken as a measure of viable cells.

For the molecule `CCOC(=O)CCNc1cc(N2CCc3ccccc3CC2)nc(-c2ccccn2)n1` [GSK-J4], the “change in tumor volume relative to treatment start” value in assay [1] is on record as “continued to grow in volume”; in assay [2] it was “significant tumor shrinkage”. The “top reversed down-regulated gene, fold change (down)” value in assay [3] (LEAP2 for JIB-04, TAF9B for GSK-J4) is listed as around 3 fold. Also, in assay [3] (YPEL2 for JIB-04, BNIP3 for GSK-J4), the “top reversed up-regulated gene, fold change (up)” value was around 10 fold. Also, in assay [4], the “H1355 T16 SR (Selectivity Ratio)” value was found to be 10.4. In assay [5], the “H1299 T18 SR (Selectivity Ratio)” value is on record as 22.3.
